# GLP1R ag – agonists of human GLP-1 receptor. P43220. HEK293 GLP-1R CRE-luciferase, luminescence, 4-6 h; cells express a hypersensitive GLP-1R form. Potency, µM (top dose mostly 45.6 µM), for inactives: top-dose activation, actives largely listed as activators. 0.007% of 380,000 active; further: potency means the concentration at half of the fitted maximal effect; % of control where 0% means no effect
# GLP1R cytotox – cytotoxic in the GLP-1 receptor inverse agonist counter-screen; 0.13% of 410,000 active; HEK293 cAMP-luciferase reporter cells, luminescence, 24 h; Potency, µM (doses to about 38.3 µM), for inactives: at the top dose activity change, negative = inhibition, hits mostly inhibitors;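 further: loss of luciferase light is scored as toxicity; potency means the concentration at half of the fitted maximal effect; on the % scale 0 is the no-effect control and ±100 the full control effect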
#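 1536-well qHTS counterscreen of the MLSMR; 200 cells/uL, 12 h pre-incubation, 23 nL cpd, 24 h at 37 deg C 5% CO2, luciferase detection reagent, 12 min RT, luminescence. Inhibition = undesired.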
# miR-21 reporter – raises the signal of a miR-21 reporter | Potency, µM (doses to about 38.3 µM), for inactives: top-dose reporter change, positive = more light | HeLa miR-21 FLuc reporter, luciferase, 48 h | AID 2288 | 340,000 tested, under 10 active; active = well fitted rising curve with a large enough effect; inconclusive = small, poorly fitted or top-dose-only effect; inactive = no such curve, though single readings can be large or run the other way;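 also: % of control where 0% means no effect; miR-21 action dims this reporter so a rising signal means less miR-21 action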
#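 HeLa miR-21-FLuc reporter line, endogenous miR-21; 2000 cells/well in DMEM/10% FBS; compound titration up to ~40uM final, 48 h, 37 degree Celsius; luciferase detection reagent, 15 min lysis, CCD luminescence.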
# PTHR1 agonist – activates the human parathyroid hormone receptor PTHR1 | Potency, µM (highest dose often 115 µM), inactives show at the top dose activation, usual class: activators | HEK293 GP2 PTHR1 cells, GloSensor cAMP luminescence, 1 h | Q03431 | AID 743266 | 0.075% of 410,000 active; further: potency means the concentration at half of the fitted maximal effect; nearly all actives have a fitted effect of over 55% in size
#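 HEK-293-derived GP2 cells expressing PTHR1 and a GloSensor cAMP reporter, 3,000/well, plated overnight, given luciferin plus IBMX (each 0.5 mM as added) for 1 h at 37 °C, then compound for 1 h at 37 °C. Luminescence was read after 15 min at room temperature.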
# Pin1 inh – human Pin1 inhibition; 0.009% of 390,000 active; AID 504891; Pin1 FP peptide displacement, HiFluor488, 10 min; Potency, µM (top dose mostly 115 µM), for inactives: at the highest dose activity, negative = inhibition, actives largely listed as inhibitors; Q13526; active means well fitted inhibition curve with a large enough effect in the polarisation, with a control signal flat, not every such curve was filed as active; inconclusive means small, poorly fitted or top-dose-only effect, or effect the other way, or a change in a side signal; inactive means no such curve, though single readings can be large or run the other way; the % refers to the polarisation; further: potency means the concentration at half of the fitted maximal effect; on the % scale 0 is the no-effect control and ±100 the full control effect
# GLP-1R inv ag – inverse agonists of human GLP-1 receptor | AID 624417 | Potency, µM (series often up to 38.3 µM), without a hit: top-dose activity change, negative = inhibition, actives largely listed as inhibitors | P43220 | 1.6% of 410,000 active | HEK293 GLP-1R CRE-luciferase, luminescence, 24 h; GLP-1R form is constitutively active; further: potency means the concentration at half of the fitted maximal effect; on the % scale 0 is the no-effect control and ±100 the full control effect; nearly all actives have a fitted effect of over 55% in size
#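 Readout was luciferase luminescence, measured 12 min after detection reagent at room temperature. Beforehand, GLP-1R reporter HEK293 cells had sat 12 h, then received compounds for 24 hr at 37 deg C.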
# * = called active by the depositor; i = inactive; u = inconclusive; x = not tested or not shown. In the library only some 1.7% were active in any assay of this set; here they are far more common. Unless noted, the call rests on the fitted dose curve; in most records, active means well fitted curve in the direction sought with a large enough effect; inconclusive means small, poorly fitted or top-dose-only effect, or another doubt; inactive means no such curve, though single readings can be large; an effect the other way counts as inactive or inconclusive.
molecule	GLP1R ag	GLP1R cytotox	miR-21 reporter	PTHR1 agonist	Pin1 inh	GLP-1R inv ag
CCCCOc1ccc(S(=O)(=O)NCc2csc(-c3ccc(OC)cc3)n2)cc1	x	17%	1%	-17%	-2%	1%
Cc1ccc(-c2noc(C3CC(=O)N(c4ccc5c(c4)OCCO5)C3)n2)cc1 (stereo not given)	x	-1%	-1%	-32%	6%	16%
CC[n+]1c(/C=C2\Sc3ccccc3N2C)ccc2cccc(C)c21	-3%	u	u	-39%	110%	13µM*
CCN1/C(=C/c2ccc3cc(C)ccc3[n+]2CC)Sc2ccccc21	-6%	-20%	u	-67%	u	u
Cc1ccccc1C(=O)OCc1cc(=O)n2nc(C3CC3)sc2n1	x	4%	-57%	i	2%	8%
Cc1cc(C)c2nc(N(CCN(C)C)C(=O)c3ccc(S(=O)(=O)N(C)CC4CCCO4)cc3)sc2c1 (stereo not given)	-6%	5%	-9%	-2%	4%	10µM*
Cc1ccc2sc(N(CCCN(C)C)C(=O)c3ccc(S(=O)(=O)N4CCOCC4)cc3)nc2c1C	-6%	-15%	x	i	0%	10µM*
Cc1ccc2sc(N(CCCN(C)C)C(=O)c3ccc(S(=O)(=O)N(C)C4CCCCC4)cc3)nc2c1C	-7%	u	x	-4%	14%	2.8µM*
Cc1cc(C)c2nc(N(CCCN(C)C)C(=O)c3ccc(S(=O)(=O)N4CC(C)OC(C)C4)cc3)sc2c1 (stereo not given)	-8%	11%	x	i	0%	10µM*
CC(=O)c1ccc(C(=O)N(CCCN(C)C)c2nc3c(C)c(C)ccc3s2)cc1	-3%	-8%	-11%	-16%	-5%	u
Cc1ccc2sc(N(CCN(C)C)C(=O)c3ccc(S(=O)(=O)N4CC(C)OC(C)C4)cc3)nc2c1C (stereo not given)	-1%	-11%	-5%	i	0%	u
Cc1cc(Sc2nnc(N)s2)c2ccccc2n1	-5%	-29%	u	-52%	1%	u
Cc1cc(Sc2nnc(/N=C/N(C)C)s2)c2ccccc2n1	-5%	-7%	u	-35%	7%	3.2µM*
CO/N=C1\CN(c2nc3c(cc2F)c(=O)c(C(=O)O)cn3C2CC2)CC1CN (stereo not given)	11%	x	x	x	x	x
O=C(C=C(C(=O)c1ccccc1)c1ccccc1)c1ccccc1	13%	-3%	x	-7%	0%	8.9µM*
COc1ccc(-c2coc3c(C(=O)NCc4ccco4)cccc23)c(C)c1	-2%	-7%	x	-44%	x	4.5µM*
COc1ccc(-c2ccc(C(=O)NCc3ccco3)c3occc23)c(C)c1	13%	-9%	x	-70%	x	u
Cc1ccc(NC(=S)NC(NC(=O)c2ccccc2)C(Cl)(Cl)Cl)c(C)c1 (stereo not given)	-23%	u	u	-1%	15%	3.5µM*
Cc1cccc(NC(=S)NC(NC(=O)c2ccco2)C(Cl)(Cl)Cl)c1 (stereo not given)	-10%	u	-5%	-53%	-1%	1.1µM*
Cc1ccc(C(=O)NC(NC(=S)Nc2ccc(S(N)(=O)=O)cc2)C(Cl)(Cl)Cl)cc1 (stereo not given)	-6%	-25%	-3%	-37%	8%	5.6µM*

# One compound at a time, as listed above:
# Cc1cc(Sc2nnc(N)s2)c2ccccc2n1 as listed: GLP1R ag = -5%; GLP1R cytotox = -29%; miR-21 reporter = u; PTHR1 agonist = -52%; Pin1 inh = 1%; GLP-1R inv ag = u
# O=C(C=C(C(=O)c1ccccc1)c1ccccc1)c1ccccc1 as listed: GLP1R ag = 13%; GLP1R cytotox = -3%; miR-21 reporter = x; PTHR1 agonist = -7%; Pin1 inh = 0%; GLP-1R inv ag = 8.9µM*

# Returning to the listing, repeating the two entries before the break.
molecule	GLP1R ag	GLP1R cytotox	miR-21 reporter	PTHR1 agonist	Pin1 inh	GLP-1R inv ag
Cc1cccc(NC(=S)NC(NC(=O)c2ccco2)C(Cl)(Cl)Cl)c1 (stereo not given)	-10%	u	-5%	-53%	-1%	1.1µM*
Cc1ccc(C(=O)NC(NC(=S)Nc2ccc(S(N)(=O)=O)cc2)C(Cl)(Cl)Cl)cc1 (stereo not given)	-6%	-25%	-3%	-37%	8%	5.6µM*
O=C(NC(NC(=S)Nc1ccccc1)C(Cl)(Cl)Cl)c1cccc(Cl)c1 (stereo not given)	-15%	u	u	-90%	16%	7.9µM*
Cc1ccccc1C(=O)NC(NC(=S)Nc1ccc(S(N)(=O)=O)cc1)C(Cl)(Cl)Cl (stereo not given)	-7%	-15%	13%	i	-8%	u
O=C(O)c1cccc(NC(=S)NC(NC(=O)c2cccc([N+](=O)[O-])c2)C(Cl)(Cl)Cl)c1 (stereo not given)	-6%	3%	0%	10%	u	4%
Cc1ccc(S(=O)(=O)N(CC(=O)Nc2c(C)cccc2C)c2cccc(Cl)c2)cc1	x	4%	11%	0%	45%	u
O=C(CN1C(=O)CC(c2ccc(F)cc2)=Nc2ccccc21)NCc1ccccc1Cl	x	0%	1%	-18%	0%	-2%
Cc1cc2c(s1)c1cnn(Cc3cccc(C(F)(F)F)c3)c(=O)c1n2C	x	x	x	x	1%	x
O=[N+]([O-])c1ccc2c(c1)C(N1CCN(CCO)CC1)Cc1ccc(F)cc1S2 (stereo not given)	13%	-12%	x	i	x	u
Fc1ccc2c(c1)Sc1ccc(Cl)cc1CC2N1CCN(CCC2OCCO2)CC1 (stereo not given)	17%	u	x	-2%	5%	3.5µM*
O=C1CCc2cc(Cl)c(S(=O)(=O)Nc3ccc(Cl)c(Cl)c3)cc2N1	x	x	x	x	7%	x
CCCCN(CC)CCNC(=O)c1cc2c(=O)n(CC)c3ccccc3c2s1	7%	3%	1%	-7%	0%	u
CN(C)CCCNC(=O)c1cc2sc3ccccc3c2s1	6%	u	u	-5%	4%	4µM*
CCCCN(CC)CCCNC(=O)c1cc2c(=O)n(CC)c3ccccc3c2s1	7%	38%	u	i	8%	2.8µM*
O=C(/C=C/c1cccc([N+](=O)[O-])c1)NCCSCc1c(Cl)cccc1Cl	7%	10%	-17%	i	0%	u
O=C(/C=C/c1cccc([N+](=O)[O-])c1)NCCSCc1ccc(Cl)cc1	12%	-20%	-3%	-25%	-1%	10µM*
N#Cc1c(-n2ncnc2-c2ccccc2Cl)sc2c1CCCCC2	x	-5%	-29%	-28%	18%	8%
O=C(c1cc(COc2ccc(F)cc2Cl)on1)N1CCN(C2CCCCC2)C(=O)C1	11%	-11%	5%	-36%	-5%	10µM*
Cc1ccc(C)c(OCc2cc(C(=O)N3CCN(C4CCCCC4)CC3)no2)c1	9%	3%	x	-16%	x	u
Cc1cccc(C)c1OCc1cc(C(=O)N2CCN(c3ccccc3)CC2C)no1 (stereo not given)	4%	-4%	-7%	-50%	u	u
Cc1ccc(C)c(OCc2cc(C(=O)N3CCN(c4ccccc4C)CC3C)no2)c1 (stereo not given)	-7%	8%	-32%	-18%	39%	2.5µM*
Cc1ccc(C)c(OCc2cc(C(=O)N3CC[C@@H]4CCCC[C@H]4C3)no2)c1	2%	7%	-45%	i	2%	11µM*
Nc1cccc(-c2cn3ccsc3n2)c1	x	0%	-50%	-12%	4%	8%
